Measured values: US20210040062A1, “AZOLE-SUBSTITUTED PYRIDINE COMPOUND” (TAISHO PHARMACEUTICAL CO., LTD., priority 2016, published 2021)

By UniProt entry, the sequences of proteins in these tests, tags left out. Residues count along the entry.
UniProt P78329, 5-520 limits assumed: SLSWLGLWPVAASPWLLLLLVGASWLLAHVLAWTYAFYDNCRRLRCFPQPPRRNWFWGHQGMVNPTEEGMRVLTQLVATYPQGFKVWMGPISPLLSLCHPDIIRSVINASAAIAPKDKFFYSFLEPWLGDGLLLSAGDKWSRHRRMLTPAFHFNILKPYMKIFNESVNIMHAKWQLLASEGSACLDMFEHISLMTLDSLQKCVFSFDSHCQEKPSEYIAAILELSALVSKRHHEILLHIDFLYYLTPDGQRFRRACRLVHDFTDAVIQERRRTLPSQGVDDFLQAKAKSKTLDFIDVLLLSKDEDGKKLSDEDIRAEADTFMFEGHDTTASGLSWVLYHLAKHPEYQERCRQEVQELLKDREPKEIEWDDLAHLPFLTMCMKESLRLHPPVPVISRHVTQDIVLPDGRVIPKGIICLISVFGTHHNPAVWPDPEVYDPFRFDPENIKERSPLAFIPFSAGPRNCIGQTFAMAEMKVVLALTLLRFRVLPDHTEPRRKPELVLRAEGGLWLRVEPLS
UniProt Q02928, 5-519 limits assumed: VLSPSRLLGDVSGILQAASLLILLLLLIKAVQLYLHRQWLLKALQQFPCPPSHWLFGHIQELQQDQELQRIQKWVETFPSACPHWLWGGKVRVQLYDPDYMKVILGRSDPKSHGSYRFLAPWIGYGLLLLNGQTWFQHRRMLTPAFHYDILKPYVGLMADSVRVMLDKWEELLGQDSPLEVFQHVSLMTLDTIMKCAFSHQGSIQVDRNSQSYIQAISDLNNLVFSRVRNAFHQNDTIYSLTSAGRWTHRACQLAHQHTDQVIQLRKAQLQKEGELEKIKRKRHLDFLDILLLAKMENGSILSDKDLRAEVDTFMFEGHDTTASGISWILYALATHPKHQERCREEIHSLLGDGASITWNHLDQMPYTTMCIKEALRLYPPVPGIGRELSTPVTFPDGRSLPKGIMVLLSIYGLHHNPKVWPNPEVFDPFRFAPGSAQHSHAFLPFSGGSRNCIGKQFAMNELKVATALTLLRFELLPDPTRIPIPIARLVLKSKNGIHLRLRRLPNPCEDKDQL

Columns and labels:
human CYP4F2 = human CYP4F2 (Homo sapiens, UniProt P78329); assay: CYP4F2 inhibition test (Test Example 1); conditions: read-out: IC50 value Human CYP4F2; Escherichia coli membrane fraction expressing human CYP4F2, 2.5 μM luciferine derivative, room temperature 60 minutes, luminescence
human CYP4A11 = human CYP4A11 (Homo sapiens, UniProt Q02928); assay: CYP4A11 inhibition test (Test Example 1); conditions: read-out: IC50 value Human CYP4A11; Escherichia coli membrane fraction expressing human CYP4A11, 60 μM luciferine derivative, room temperature 60 minutes, luminescence

**Q.** For CN(C)S(=O)(=O)N1CCC[C@H](COc2cnc(-c3ccn[nH]3)c(F)c2)C1, which IC50 (human CYP4F2) is on record?
**A.** 32 nM

**Q.** And the IC50 (human CYP4A11)?
**A.** 19 nM
